# Results reported in paper PMC8603004 (EFSA Journal, 2021).
# How the values were obtained:
# [1] = Third in vitro rumen fluid trial; settings: 16 h
# [2] = Third in vitro rumen fluid trial; settings: 16 h; remark: listed apart in the source
# [3] = Third in vitro rumen fluid trial; settings: 16 h; remark: listed apart in the source
# [4] = Incubation of
substance,measurement,setting,value
"propane‐1,3‐diol","Major metabolite, share of the extractable radioactivity",[1]; aerobic,57.8%
same,"Major metabolite, share of the extractable radioactivity",[1]; anaerobic,63.7%
same,"Major metabolite, share of the extractable radioactivity",[2]; aerobic,70.5%
same,"Major metabolite, share of the extractable radioactivity",[2]; anaerobic,46.8%
same,"Major metabolite, share of the extractable radioactivity",[3]; aerobic,66.4%
same,"Major metabolite, share of the extractable radioactivity",[3]; anaerobic,82.8%
same,Major metabolite formed at t = 24 h,[4]; from 3‐NOP 2.2 mg/L,98.5%
same,Major metabolite formed at t = 24 h,[4]; from 3‐NOP 23 mg/L,> 97%
